# Values of other authors, collected in patent US20100227876A1 (priority 2009, published 2010).
# Tested on: human
# Conditions: cited from earlier work
smiles,measurement,value
Oc1ccc2c3c1O[C@H]1[C@@H](O)CC[C@@]4(O)[C@@H](C2)N(CC2CCC2)CC[C@]314 [nalbuphine],effective human dose,5 to 10 mg
